The text below walks through data of patent US6376644B1, “Biodegradable polymers chain-extended by phosphates, compositions, articles and methods for making and using the same” (Guilford Pharmaceuticals, Inc., priority 1997, dated 2002).

For this data set the following is noted: pH 7.4.

Consider “Poly(L-lactide-co-ethyl-phosphate) [P(LAEG-EOP)]”, for which the “Degradation profile (weight loss and molecular weight change)” value is reported as “favorable degradation profiles”.
